These are literature values, as cited in paper PMC2908260 (Journal of nuclear medicine : official publication, Society …, 2010).

One may read the log P as the decadic logarithm of the partition coefficient of the neutral form, usually between octanol and water.

For this data set the following is noted: other ^18F-labeled octreotide analogues.

Take [^18F]fluoropropionyl octreotide: the “log P” value is reported as −0.07 ± 0.01.
